Legend:
[1] = target: KOR FRET sensor (human kappa opioid receptor with sYFP2 in intracellular loop 3 and mTurquoise2 at the truncated C-terminus) (human) (UniProt P41145)
[2] = target: KOR BRET sensor (KOR sensor with mTurq2 replaced by nLuc2) (human) (UniProt P41145)
[3] = target: NOP FRET sensor (human nociceptin/orphanin FQ receptor with sYFP2 in intracellular loop 3 and mTurquoise2 at the truncated C-terminus) (human) (UniProt P41146)

The chains behind the UniProt entries cited, without tags or fusion partners. Residues count along the entry.
UniProt P41145, 1-363: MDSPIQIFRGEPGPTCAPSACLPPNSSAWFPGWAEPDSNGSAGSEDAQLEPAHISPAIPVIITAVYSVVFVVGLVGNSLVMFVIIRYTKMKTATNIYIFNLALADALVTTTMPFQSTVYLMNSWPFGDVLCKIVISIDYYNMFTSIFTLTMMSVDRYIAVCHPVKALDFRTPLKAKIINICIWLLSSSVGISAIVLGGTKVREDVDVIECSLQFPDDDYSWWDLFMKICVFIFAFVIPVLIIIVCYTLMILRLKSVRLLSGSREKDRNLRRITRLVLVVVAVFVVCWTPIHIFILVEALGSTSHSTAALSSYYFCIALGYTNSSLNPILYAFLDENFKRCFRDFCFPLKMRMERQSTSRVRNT
UniProt P41146, 1-351: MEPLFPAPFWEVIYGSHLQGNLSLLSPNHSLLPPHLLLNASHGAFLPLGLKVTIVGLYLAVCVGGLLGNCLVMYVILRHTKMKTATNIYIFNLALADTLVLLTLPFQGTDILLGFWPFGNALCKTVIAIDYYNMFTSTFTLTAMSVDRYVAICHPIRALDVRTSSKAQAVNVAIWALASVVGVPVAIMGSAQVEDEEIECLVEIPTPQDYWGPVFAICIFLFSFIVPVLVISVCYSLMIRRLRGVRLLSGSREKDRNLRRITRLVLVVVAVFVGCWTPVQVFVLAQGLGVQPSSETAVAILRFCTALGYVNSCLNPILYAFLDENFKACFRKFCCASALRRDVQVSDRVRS

Substance	EC50 of the agonist-induced change of the FRET emission ratio of the KOR FRET conformation sensor (96-well plate reader) [1]	EC50 of the agonist-induced change of the BRET ratio of the KOR BRET conformation sensor [2]	EC50 of the agonist-induced change of the FRET emission ratio of the NOP FRET conformation sensor (96-well plate reader) [3]
dynorphin A (peptide)	219 nM	209 nM	–
nociceptin (1–13) amide (peptide)	–	–	63 nM

From article PMC11806106
